Values quoted from earlier work as cited in PMC10694493 (Cell Reports Methods, 2023).

Conditions: cited from earlier work

SMILES: CSCC[C@H](NC(=O)[C@H](CC(=O)O)NC(=O)[C@H](CO)NC(=O)[C@@H](NC(=O)[C@H](CCC(=O)O)NC(=O)CNC(=O)[C@H](CC(C)C)NC(=O)[C@H](CO)NC(=O)[C@H](Cc1c[nH]c2ccccc12)NC(=O)[C@H](CO)NC(C)=O)C(C)C)C(=O)N[C@@H](C)C(=O)N[C@@H](C)C(=O)N[C@H](C(=O)N[C@@H](CCC(=O)O)C(=O)N[C@@H](C)C(=O)N[C@@H](C)C(=O)N[C@@H](CCC(=O)O)C(=O)N[C@@H](CC(C)C)C(=O)N[C@@H](CCC(=O)O)C(=O)N[C@@H](CCSC)C(=O)N[C@H](C(=O)N[C@@H](CCCNC(=N)N)C(=O)N[C@@H](CCC(N)=O)C(=O)N[C@H](C(=O)N[C@@H](CC(C)C)C(=O)N[C@@H](Cc1c[nH]cn1)C(=O)N[C@@H](C)C(N)=O)C(C)C)[C@@H](C)O)C(C)C [P414]
- membrane binding activity: no membrane binding activity
